Test results as given in PubChem BioAssay AID1347076 (National Center for Advancing Translational Sciences (NCATS), 2019).
The list shows a part of the results, in another mix than the full data. Records with an inconclusive call do not appear. Some structures show a salt or complex split into parts, the way the source records it. Activity calls are given as the source filed them. The call rests on the fitted dose curve; in most records, active means well fitted cell-killing curve with a large enough effect; inconclusive means small, poorly fitted or top-dose-only effect, or effect the other way; inactive means flat fitted curve, though single readings scatter.

assay: qHTS assay for MDR1-selective chemotherapeutics: Primary screen using the drug-selected MDR subline cells KB-V1; settings: KB-V1 MDR cells viability, CellTiter-Glo, 72 h; at 46.1 µM (top of the series); further: nearly all actives have a fitted effect of over 60% in size
Excerpt: A prime difficulty in effectively treating cancer is the development of cellular resistance to multiple structurally unrelated anticancer drugs, a phenomenon known as multidrug resistance (MDR). […] Numerous strategies to overcome P-gp-mediated MDR have been explored, including the design of drugs that evade recognition and efflux, and development of inhibitors to block efflux and restore drug accumulation. […] An alternative approach is to exploit resistance by identifying drugs that target MDR cells over the non-resistant parental cells from which they were selected. […] The development of MDR1-selective agents represents a new strategy for resolving multidrug resistance, as it remains a long-standing clinical challenge for cancer chemotherapy.
Our goal is to identify compounds that selectively kill P-gp-expressing MDR cells. We will identify MDR1-selective compounds by comparing toxicity of compounds in the screening library against parental, drug-naive (KB-3-1) adenocarcinoma cells as well as their drug-selected MDR sub-line (KB-V1). The differential toxicity of compounds against these two cell lines will be used to identify MDR1-selective compounds, whose cytotoxicity is potentiated, rather than diminished, by P-gp expression. This assay will be utilized to conduct a quantitative high-throughput screen (qHTS) in collaboration with the NIH Chemical Genomics Center to identify selective agents, and probe hits arising from the screen will be validated using secondary assays and characterized through a well-established follow-up research program. This screen was run against the entire NCGC library collection of about 400,000 compounds.
NIH Molecular Libraries Probe Production Network [MLPCN]
NIH Chemical Genomics Center [NCGC]
PI: Michael Gottesman, National Cancer Institute, NIH
Briefly, 5 microL of media containing either KB-V1 cells (columns 1-2, 4-48) are dispensed into Greiner white, treated solid-bottom 1536-well assay plates (media-only control is added to column 3). Compounds are then transferred via Kalypsys pin tool equipped with 1536-pin array (10 nL slotted pins, V&P Scientific, San Diego, CA). Following addition of compound, the plates are incubated at 37 degrees C for 72 hours. CellTiter-Glo (2.5 µL/well) is then added, and the plates are read in a ViewLux reader (Perkin-Elmer, clear luminescence filter, 1 second exposure, 1x binning) following a 10 minute incubation. All cells are dispensed in DMEM phenol-red free media containing 10% FBS.
Library plates were screened starting from the lowest and proceeding to the highest concentration. Vehicle-only plates, with DMSO being pin-transferred to columns 5-48, will be inserted uniformly at the beginning and the end of each library in order to monitor and record any shifts in the background, which can be affected by reagent dispensers or loss in enzyme activity over time. Screening data will be corrected, normalized, and concentration-effect relationships will be derived by using publicly-available NCGC, NCATS curve fitting algorithms (http://ncgc.nih.gov/pub/openhts).
On the % scale 0 is the no-effect control and ±100 the full control effect.

SMILES	activity change, negative = cytotoxicity
CCN(CC)CCCNc1ccccc1[N+](=O)[O-].O=[N+]([O-])c1cc([N+](=O)[O-])c(O)c([N+](=O)[O-])c1	inactive: -5.62%
CN1CCC(Nc2cccc(F)c2)CC1	inactive: -15.7%
COc1ccc2c(c1O)-c1c(O)c(OC)cc3c1[C@H](C2)[N+](C)(C)CC3.O=[N+]([O-])c1cc([N+](=O)[O-])c([O-])c([N+](=O)[O-])c1[O-]	inactive: -10.8%
O=C(OC1CN2CCC1CC2)c1ccc([N+](=O)[O-])cc1 (centres undefined)	inactive: -0.288%
Cc1ccc(C(=O)NCC2(N(C)C)CCCCC2)o1	inactive: -29.6%
CCCOc1ccc(C(=O)NCC2(N(C)C)CCCCC2)cc1OC	inactive: 14.9%
COc1ccc(C(c2nnnn2C2CCCC2)N2CCC(n3c(=O)[nH]c4ccccc43)CC2)cc1 (centres undefined)	inactive: -19.8%
O=C(NCC1(N2CCCCC2)CCCCC1)c1cccs1	inactive: -13.5%
CCCCn1nnnc1C(CC)N1CCC(n2c(=O)[nH]c3ccccc32)CC1 (centres undefined)	inactive: 11.5%
COc1ccc(C(=O)NCC2(N3CCCCC3)CCCCC2)cc1	inactive: -25.3%
CC(C)(C)OC(=O)N1CCC(N(C(=O)c2ccccc2)c2ccc(F)cc2)CC1	inactive: 28.1%
COc1ccc(C(=O)NCC2(N3CCCCC3)CCCCC2)c(OC)c1OC	inactive: -17.7%
CCC(c1nnnn1C1CCCC1)N1CCC(n2c(=O)[nH]c3ccccc32)CC1 (centres undefined)	inactive: 5.77%
CSc1ccccc1C(=O)NCC1(N2CCCCC2)CCCCC1	inactive: -0.147%
O=C(NCC1(N2CCOCC2)CCCCC1)c1cc2ccccc2o1	inactive: -6.24%
O=C(NCC1(N2CCCCC2)CCCCC1)c1ccc(Cl)nc1	inactive: -10.9%
Cc1cc(C)cc(N(C(=O)c2ccccc2)C2CCN(C(=O)OC(C)(C)C)CC2)c1	inactive: -0.263%

SMILES	activity change, negative = cytotoxicity
CCOC(=O)N1CCC(Nc2ccc(OC)cc2)CC1	inactive: -6.55%
CCCCn1nnnc1C(c1ccc(OC)cc1)N1CCC(n2c(=O)[nH]c3ccccc32)CC1 (centres undefined)	inactive: -1.03%
O=C(NCC1(N2CCCCC2)CCCCC1)c1ccc(Cl)s1	inactive: -21.4%
N#CC1(Nc2ccccc2)CCN(Cc2ccccc2)CC1	inactive: 10%
O=C1C(O)=C([N+](=O)[O-])C(=O)C(O)=C1[N+](=O)[O-]	inactive: 7.88%
CCOc1ccc(C)cc1CN(CCCl)CCCl	inactive: 6.92%
O=C(NCC1(N2CCOCC2)CCCCC1)c1ccc(Cl)cc1	inactive: -29.3%
CC(C)(C)n1nnnc1C(c1ccccc1)N1CCC(n2c(=O)[nH]c3ccccc32)CC1 (centres undefined)	inactive: 11.9%
O=C1CCN(Cc2ccccc2)CC1	inactive: 15.2%
O=P1(N(CCCl)CCCl)SCCCS1	inactive: 14.3%
CCCCOc1ccc(C(=O)NCC2(N3CCOCC3)CCCCC2)cc1	inactive: 4.5%
O=C(NCC1(N2CCCCC2)CCCCC1)c1ccc(F)cc1	inactive: 11.3%
COc1ccc(NC2CCN(CCc3ccccc3)CC2)c(OC)c1	inactive: -9.23%
CCOC(=O)N1CCC(Nc2ccc(F)cc2)CC1	inactive: -4.82%
O=c1[nH]c2ccccc2n1C1CCN(C(c2ccccc2)c2nnnn2C2CCCCC2)CC1 (centres undefined)	inactive: -15.2%
CCOC(=O)N1CCC(Nc2cccc(C)c2)CC1	inactive: 3.01%
COc1cc(C(=O)NCC2(N(C)C)CCCCC2)ccc1OC(F)F	inactive: 0%
